What was measured:
[1] = target: T1, adenosine A3 receptors in HL60 membranes (Homo sapiens, UniProt P0DMS8); assay: Saturation of Compound 1 binding to A3 receptors in HL60 membranes; details: 0.1 to 10 nM, n=3
T1 construct: characterization of A3 receptors in some human tumor cell lines; endogenous in cells; host or cells: HL60 (human promyelocytic leukaemia), membranes
Source text: (§1) FIGS. 3 and 4 are graphs showing the saturation of the binding of a tritiated analogue of 5-[[(4-Methoxyphenyl)amino]carbonyl]amino-8-propyl-2-(2-furyl)-pyrazolo[4,3-e] 1,2,4-triazolo[1,5-c]pyrimidine (Compound 1) (fmol/mg protein) to A3 receptors expressed in the JURKAT cell line versus the molar concentration of compound 1. […] For example, approximately 1300 fmol/mg protein was detected in Jurkat cells and 650 fmol/mg protein was detected in HL60 cells. […] These findings have facilitated the determination of the presence of A3 receptors in many human tumors.
(§2) The following experiments described for the first time, the characterization of A3 receptors in some human tumor cell lines such as HL60, a promyelocytic human leukaemia and Jurkat, a human T-cell leukaemia, by using the selective antagonist (Compound 1) described herein. In these studies, membranes (0.5 mg protein/ml) from Jurkat and HL60 cells were incubated with 10-12 different concentrations of the compound described above ranging from 0.2 to 15 nM and 0.1 to 10 nM for Jurkat and HL60 cells, respectively.

Amino acid sequences for entries named in this document (tags omitted). A change or cut given only in a name is not applied to a line headed by its entry.
UniProt P0DMS8, whole entry: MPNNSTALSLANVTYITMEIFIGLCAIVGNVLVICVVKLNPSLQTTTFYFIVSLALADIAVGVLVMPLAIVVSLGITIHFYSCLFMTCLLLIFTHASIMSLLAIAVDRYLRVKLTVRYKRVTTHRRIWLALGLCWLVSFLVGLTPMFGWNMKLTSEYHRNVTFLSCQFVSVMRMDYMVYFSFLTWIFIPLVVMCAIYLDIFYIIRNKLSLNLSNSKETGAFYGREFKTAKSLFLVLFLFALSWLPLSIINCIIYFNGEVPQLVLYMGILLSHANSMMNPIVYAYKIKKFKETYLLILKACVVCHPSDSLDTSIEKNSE
UniProt P30543, whole entry: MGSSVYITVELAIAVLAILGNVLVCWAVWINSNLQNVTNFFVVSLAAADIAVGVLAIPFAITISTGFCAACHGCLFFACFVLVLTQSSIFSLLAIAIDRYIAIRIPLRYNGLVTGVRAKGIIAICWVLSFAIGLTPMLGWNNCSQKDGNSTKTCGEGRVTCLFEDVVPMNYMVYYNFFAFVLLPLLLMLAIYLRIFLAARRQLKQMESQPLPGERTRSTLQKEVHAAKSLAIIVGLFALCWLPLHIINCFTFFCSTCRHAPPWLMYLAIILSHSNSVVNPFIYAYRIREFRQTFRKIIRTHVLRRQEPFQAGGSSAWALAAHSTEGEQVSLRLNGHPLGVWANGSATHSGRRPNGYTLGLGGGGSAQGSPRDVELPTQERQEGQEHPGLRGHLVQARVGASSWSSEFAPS

[2] = target: T2, adenosine A3 receptors in Jurkat cell membranes (Homo sapiens, UniProt P0DMS8); assay: Saturation of Compound 1 binding to A3 receptors in Jurkat cell membranes; details: 0.2 to 15 nM, n=3
T2 construct: characterization of A3 receptors in some human tumor cell lines; endogenous in cells; host or cells: Jurkat (human T-cell leukaemia), membranes
Source text: as §1, §2

[3] = target: human A3 adenosine receptor (Homo sapiens, UniProt P0DMS8)
[4] = target: rat A2A adenosine receptor (striatum membranes) (Rattus norvegicus, UniProt P30543); details: read-out: rA2A (Ki), [^3 H]SCH58261 0.2 nM, 1,658-2,397 in parentheses on next line

CCCn1cc2c(nc(NC(=O)Nc3ccc(OC)cc3)n3nc(-c4ccco4)nc23)n1 [Compound 1, 5-[[(4-Methoxyphenyl)amino]carbonyl]amino-8-propyl-2-(2-furyl)-pyrazolo[4,3-e] 1,2,4-triazolo[1,5-c]pyrimidine]
Kd [1]: 1.2 ± 0.1 nM | Kd [2]: 1.9 ± 0.2 nM | affinity and selectivity for the human adenosine A3 receptor subtype ([3]; in words): relatively high affinity and selectivity | rA1 /hA3 ([3]; ratio of Ki values, rat A1 over human A3): > 34,482 | rA2A /hA3 ([3]; ratio of Ki values, rat A2A over human A3): 6,872 | Ki ([3]; read-out: hA3 (Ki), HEK-293 cells transfected with human recombinant A3, [^125 I]AB-MECA, (0.27-0.32) on next line): 0.29 nM | Ki [4]: 1990 nM
